{"source": "BindingDB's records for doi:10.1021/jm061066t", "about": "(Pfizer, 2007)", "biological_target": "Urokinase-type plasminogen activator (Homo sapiens, UniProt P00749)", "data": [{"molecule": "N=C(N)c1ccc2nc(Cc3nc4ccc(C(=N)N)cc4[nH]3)[nH]c2c1", "values": [{"measurement": "Ki", "value": 2300, "unit": "nM"}]}]}
